Experimental data as given in patent publication US20250084183A1, “ENGINEERED COMPOSITIONS FOR BONE-TARGETED THERAPY” (William Marsh Rice University, priority 2021, published 2025).

Columns and labels:
[1] = test system: MCF-7 breast cancer cells; assay: MCF-7 bone metastasis model
HA binding assay = settings: for Percentage of the bound fraction: antibodies 1 mg/ml, 20 mg/ml hydroxyapatite, 37° C., 9 h, mean ± SEM
[2] = test system: MDA-MB-361 breast cancer cells; assay: MDA-MB-361 bone metastasis xenograft model (para-tibial injection); settings: for delay in tumor growth: 1 mg/kg retro-orbital twice a week; for Osteoclast number, significance vs Control / Osteoclast number, significance vs Tras: TRAP-stained tibia sections; for Osteoclast number, significance vs Control / Osteoclast number, significance vs Tras / Serum Calcium, significance vs Control / Serum Calcium, significance vs Tras / Serum TRACP 5b, significance vs Control / Serum TRACP 5b, significance vs Tras: end of experiment; for Osteoclast number, significance vs Control / Osteoclast number, significance vs Tras / Serum Calcium, significance vs Control / Serum Calcium, significance vs Tras / Serum TRACP 5b, significance vs Control / Serum TRACP 5b, significance vs Tras / Trabecular bone parameters BMD, significance vs Control / Trabecular bone parameters BMD, significance vs Tras / Trabecular bone parameters BS/BV, significance vs Control / Trabecular bone parameters BS/BV, significance vs Tras / Trabecular bone parameters BV, significance vs Control / Trabecular bone parameters BV, significance vs Tras / Trabecular bone parameters BV/TV, significance vs Control / Trabecular bone parameters BV/TV, significance vs Tras / Trabecular bone parameters Tb. Th, significance vs Control / Trabecular bone parameters Tb. Th, significance vs Tras: one-way ANOVA; for Survival, significance vs Control: endpoint BLI intensity over 10^7, log-rank test; for Trabecular bone parameters BMD, significance vs Control / Trabecular bone parameters BMD, significance vs Tras / Trabecular bone parameters BS/BV, significance vs Control / Trabecular bone parameters BS/BV, significance vs Tras / Trabecular bone parameters BV, significance vs Control / Trabecular bone parameters BV, significance vs Tras / Trabecular bone parameters BV/TV, significance vs Control / Trabecular bone parameters BV/TV, significance vs Tras / Trabecular bone parameters Tb. Th, significance vs Control / Trabecular bone parameters Tb. Th, significance vs Tras: microCT, Tukey; for BLI Progression, significance vs Control / BLI Progression, significance vs Tras: whole body BLI over the course of the experiment, two-way ANOVA
[3] = Biodistribution of Cy7.5-labeled antibodies in mice bearing MDA-MB-361 tumors; assay type: in vivo, athymic nude mice; settings: 72 h and 120 h after retro-orbital injection, sulfo-Cy7.5 label
Method: In vivo Distribution of Bone-Targeting Antibodies. […] 72 h and 120 h after antibody infusion, the major organs were collected and imaged for antibody distribution. […] Moreover, larger quantities of bone-targeting antibodies were present in tumor-bearing right leg bones compared to left healthy bone, likely due to L-Asp6 peptide-mediated targeting to the bone resorption niche. […] This effect has the potential to enhance antitumor activity at the tumor site, while at the same time decreasing systemic toxicity.
Biodistribution. Female athymic nude mice were injected para-tibia with MDA-MB-361 cells (2× 10^5 cells/animal). […] After 72 h and 120 h injection, the mice were imaged using IVIS. 72 h and 120 h injection, the mice were killed, and major organs including heart, liver, spleen, kidney, lung, and bone tumor tissue were removed. The fluorescence intensity in organs and tumor bearing tibiae were observed using IVIS.

MDA-MB-361 cells = assay: Primary tumor model, MDA-MB-361 in mammary fat pads; assay type: in vivo, nude mice; settings: 1 mg/kg
SK-BR-3 cells = assay: In vitro cytotoxicity (MTT) against SK-BR-3; assay type: cell-based
Method: BT474, and MDA-MB-468 cells at 2×10^3 cells/well into 96-well plates. […] 20 AL of 3-(4,5-dimethylthiazol-2-yl)-2,5-diphenyltetrazolium bromide (MTT) solution (5 mg/mL) was then added to each well and incubated for another 4 h. Medium was aspirated and 150 AL DMSO was added to each well. The absorbance at 565 nm was measured by microplate reader (Infinite M Plex by Tecan) to quantify living cells.

[4] = 1 mg/kg twice a week for two months

## Tras-CH1/CT: trastuzumab with two L-Asp6 peptides, heavy chain CH1 and C-terminus; SEQ ID NOs: 13-14
[1]; [4]
  metastatic burden vs Tras-treated group: significant reduction in metastatic burden
  mouse survival vs Tras-treated group: increase of mouse survival
[1]; FIG. 36E
  weight change: did not alter additional weight change
HA binding assay
  Percentage of the bound fraction: 81.1 ± 3.1%
[2]
  delay in tumor growth: 35.8 days
  Osteoclast number, significance vs Control: **** (**** P < 0.0001)
  Osteoclast number, significance vs Tras: *** (*** P < 0.001)
  Serum Calcium, significance vs Control: * (* P < 0.05)
  Serum Calcium, significance vs Tras: ns (ns represents P > 0.05)
  Serum TRACP 5b, significance vs Control: ** (** P < 0.01)
  Serum TRACP 5b, significance vs Tras: ns (ns represents P > 0.05)
  Survival, significance vs Control: *** (*** P < 0.001)
  Trabecular bone parameters BMD, significance vs Control: ** (**P < 0.001)
  Trabecular bone parameters BMD, significance vs Tras: *** (***P < 0.001)
  Trabecular bone parameters BS/BV, significance vs Control: ** (**P < 0.001)
  Trabecular bone parameters BS/BV, significance vs Tras: * (*P < 0.05)
  Trabecular bone parameters BV, significance vs Control: **** (****P < 0.0001)
  Trabecular bone parameters BV, significance vs Tras: *** (***P < 0.001)
  Trabecular bone parameters BV/TV, significance vs Control: ** (**P < 0.001)
  Trabecular bone parameters BV/TV, significance vs Tras: * (*P < 0.05)
  Trabecular bone parameters Tb. Th, significance vs Control: ** (**P < 0.001)
  Trabecular bone parameters Tb. Th, significance vs Tras: * (*P < 0.05)
  BLI Progression, significance vs Control: **** (**** P < 0.0001)
  BLI Progression, significance vs Tras: ** (** P < 0.01)
[2]; 1 mg/kg twice a week, FIG. 3D
  rate of survival: 62.5%
[2]; 1 mg/kg twice a week, p<0.0001 Tras-CH1/CT vs Tras
  increase in tumor size (BLI signal day 1 to 80): 9.3±4.2
[2]; 10 mg/kg every 2 weeks
  tumor growth vs 10 mg/kg of Tras: statistically significant growth inhibition
[2]; FIG. 3L
  histological analysis of bone sections (H&E): reduced tumor growth and relatively normal bone morphology
[2]; FIG. 33
  bone destruction by hypercalcemia and TRACP 5b protein levels in the serum: better therapeutic effects; also recorded: lowest level of bone destruction
[2]; HER2 staining
  number of HER2-positive cells in bone niches vs Tras treatment: significantly reduced
[2]; TRAP staining
  number of osteoclasts in bone niches vs Tras treatment: significantly reduced
[2]; ex vivo BLI, 81 days after initiation of treatment
  frequency of secondary metastasis: significantly reduced the frequency of secondary metastasis to the contralateral hind limb (left hindlimb bone), heart, and liver
[2]; ex vivo BLI, day 81, vs unmodified Tras
  ex vivo BLI intensities / metastatic signals of secondary metastases: the metastatic signals from the lung and liver were significantly decreased
[2]; micro-CT, day 81
  bone mineral density (BMD) vs PBS- and Tras-treated groups: greater
  bone volume (BV) vs PBS- and Tras-treated groups: greater
  trabecular bone thickness (Tb.Th) vs PBS- and Tras-treated groups: thicker
[2]; mouse, in vivo
  Survival, significance vs Tras: * (key: **** P < 0.0001; *** P < 0.001; ** P < 0.01; * P < 0.05; ns represents P > 0.05)
  overall survival vs 10 mg/kg of Tras: prolonged overall survival
[3]
  intensity of the interosseous fluorescence signal vs Tras injected mice: stronger
MDA-MB-361 cells
  tumor growth in the mammary fat pads: significantly decreased the tumor growth
MDA-MB-361 cells; FIG. 45C
  tumor size, difference between Tras and Tras-CH1/CT treatments: no statistical differences in tumor size between two treatments
SK-BR-3 cells
  EC50: 13.1 ± 12.1 nM

## Tras-CH1: trastuzumab with L-Asp6 peptide inserted in heavy chain (CH1, A165); SEQ ID NOs: 5-6
HA binding assay
  Percentage of the bound fraction: 63.9 ± 1.2%

## Tras-CT: trastuzumab with L-Asp6 peptide at C-terminus (CT, G449); SEQ ID NOs: 7-8
HA binding assay
  HA binding capacity, rank among the three species containing single L-Asp6 peptides: highest HA binding capacity
  Percentage of the bound fraction: 71.9 ± 2.5%
[2]
  delay in tumor growth: 27.5 days
  Osteoclast number, significance vs Control: **** (**** P < 0.0001)
  Osteoclast number, significance vs Tras: ns (ns represents P > 0.05)
  Serum Calcium, significance vs Control: ns (ns represents P > 0.05)
  Serum Calcium, significance vs Tras: ns (ns represents P > 0.05)
  Serum TRACP 5b, significance vs Control: * (* P < 0.05)
  Serum TRACP 5b, significance vs Tras: ns (ns represents P > 0.05)
  Survival, significance vs Control: ** (** P < 0.01)
  Trabecular bone parameters BMD, significance vs Control: * (*P < 0.05)
  Trabecular bone parameters BMD, significance vs Tras: ** (**P < 0.001)
  Trabecular bone parameters BS/BV, significance vs Control: ns (ns represents P > 0.05)
  Trabecular bone parameters BS/BV, significance vs Tras: ns (ns represents P > 0.05)
  Trabecular bone parameters BV, significance vs Control: ** (**P < 0.001)
  Trabecular bone parameters BV, significance vs Tras: ns (ns represents P > 0.05)
  Trabecular bone parameters BV/TV, significance vs Control: ns (ns represents P > 0.05)
  Trabecular bone parameters BV/TV, significance vs Tras: ns (ns represents P > 0.05)
  Trabecular bone parameters Tb. Th, significance vs Control: ** (**P < 0.001)
  Trabecular bone parameters Tb. Th, significance vs Tras: ns (ns represents P > 0.05)
  BLI Progression, significance vs Control: **** (**** P < 0.0001)
  BLI Progression, significance vs Tras: ns (ns represents P > 0.05)
[2]; mouse, in vivo
  Survival, significance vs Tras: ns (key: **** P < 0.0001; *** P < 0.001; ** P < 0.01; * P < 0.05; ns represents P > 0.05)
[3]
  intensity of the interosseous fluorescence signal vs Tras injected mice: stronger
SK-BR-3 cells
  EC50: 5.97 ± 5.64 nM

“Also recorded” adds a separate entry of the source.
